Assay results published in publication PMC6159918 (Peptides, 2018).
Where two headings read alike, the source gives them in different places.

Amino acid sequences for entries named in this document (tags omitted). A change or cut given only in a name is not applied to a line headed by its entry.
UniProt P30550: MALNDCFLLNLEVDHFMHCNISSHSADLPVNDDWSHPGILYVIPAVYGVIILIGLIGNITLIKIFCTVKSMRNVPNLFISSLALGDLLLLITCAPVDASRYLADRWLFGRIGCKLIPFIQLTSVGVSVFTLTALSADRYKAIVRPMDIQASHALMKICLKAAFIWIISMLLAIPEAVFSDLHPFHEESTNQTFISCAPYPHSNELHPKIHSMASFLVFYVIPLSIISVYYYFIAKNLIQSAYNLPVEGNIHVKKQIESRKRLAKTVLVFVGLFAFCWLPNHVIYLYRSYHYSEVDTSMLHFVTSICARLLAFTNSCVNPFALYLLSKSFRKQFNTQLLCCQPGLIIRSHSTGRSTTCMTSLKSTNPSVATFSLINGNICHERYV
UniProt P28336: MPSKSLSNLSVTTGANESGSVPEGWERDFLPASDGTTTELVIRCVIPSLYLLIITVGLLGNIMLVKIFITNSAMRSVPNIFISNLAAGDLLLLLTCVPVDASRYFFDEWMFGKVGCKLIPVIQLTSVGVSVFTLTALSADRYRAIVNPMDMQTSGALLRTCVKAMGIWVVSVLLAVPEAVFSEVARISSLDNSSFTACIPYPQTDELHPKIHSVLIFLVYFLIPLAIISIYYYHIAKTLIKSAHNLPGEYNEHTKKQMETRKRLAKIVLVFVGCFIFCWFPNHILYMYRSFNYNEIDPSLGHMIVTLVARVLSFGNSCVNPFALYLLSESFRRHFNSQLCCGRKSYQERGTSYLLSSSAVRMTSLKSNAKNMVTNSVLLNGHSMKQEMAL

Legend:
[1] = biological target: GRPR (Homo sapiens, UniProt P30550); format: cell-based
[2] = biological target: NMBR (Homo sapiens, UniProt P28336); test: [3H]IP production, NMBR agonist/antagonist; format: cell-based; conditions: NCI-H727 (carcinoid), control 143 ± 21

## [D-Phe^6]Bombesin-(6–13)-methyl ester
[1]; Peptide #1 (10 nM) + ME 1 μM, NCI-H69 (SCLC), control 177 ± 27
  [3H]IP (DPM): 476 ± 128 DPM
[1]; Peptide #1 (10 nM) + ME 1 μM, NCI-H727 (carcinoid), control 143 ± 21
  [3H]IP (DPM): 189 ± 56 DPM

## gastrin-releasing peptide [GRP]
[1]; GRP 100 nM, NCI-H69 (SCLC), control 177 ± 27
  [3H]IP (DPM): 180 ± 19 DPM
[1]; GRP 100 nM, NCI-H727 (carcinoid), control 143 ± 21
  [3H]IP (DPM): 254 ± 40 DPM
[1]; GRP 1 μM, NCI-H69 (SCLC), control 177 ± 27
  [3H]IP (DPM): 200 ± 41 DPM
[1]; GRP 1 μM, NCI-H727 (carcinoid), control 143 ± 21
  [3H]IP (DPM): 164 ± 32 DPM

## neuromedin B [NMB]
[2]; NMB 100 nM
  [3H]IP (DPM): 278 ± 48 DPM
[2]; NMB 1 μM
  [3H]IP (DPM): 178 ± 30 DPM
